These are literature values, as cited in article PMC8037809, “Biomimetic Chromatographic Studies Combined with the Computational Approach to Investigate the Ability of Triterpenoid Saponins of Plant Origin to Cross the Blood–Brain Barrier” (International Journal of Molecular Sciences, 2021).

On the set-up of this data set: method as in earlier work. Particulars: experimentally obtained; QSAR training and test sets; cited from earlier work.
As for `Cc1ccnc2c1NC(=O)c1cccnc1N2C1CC1` [129618-40-2], the logBB is given as 0.
`C=CCC1(C(C)C#CCC)C(=O)NC(=O)N(C)C1=O` (stereo not shown) [151-83-7]: the logBB entry was “–0.06”.
Regarding `Nc1ccn([C@H]2CC[C@@H](CO)O2)c(=O)n1` [7481-89-2], the logBB result is listed as “–1.5”.
`CN/C(=C\[N+](=O)[O-])NCCSCc1ccc(CN(C)C)o1` [66357-35-5]: the logBB was 0.32.
Take `O=C1CN=C(c2ccccc2)c2cc(Cl)ccc2N1` [1088-11-5]: the logBB is 0.61.
As to `COc1ccc2c3c1O[C@H]1C[C@@H](O)C=C[C@@]31CCN(C)C2` [357-70-0], the logBB was 0.32.
`C=CCc1ccccc1OCC(O)CNC(C)C` (stereo not shown) [13655-52-2]: the logBB entry is reported as “–0.23”.
`Cn1cnc2c1c(=O)[nH]c(=O)n2C` [83-67-0]: the logBB result was “–0.29”.
Turning to `COc1ccc2c3c1O[C@H]1[C@@H](O)C=C[C@H]4[C@@H](C2)N(C)CC[C@@]341` [76-57-3], the logBB is 0.08.
In the case of `CC(=O)Nc1ccc(O)cc1` [103-90-2], the logBB result was “–0.74”.
For the compound `CCN(C)C(=O)Oc1cccc([C@H](C)N(C)C)c1` [123441-03-2], the logBB is 0.88.
As to `OCc1ncc2n1-c1ccc(Cl)cc1C(c1ccccc1F)=NC2` [59468-90-5], the logBB entry is listed as “–0.07”.
Take `Cc1ccc(-c2nc3ccc(C)cn3c2CC(=O)N(C)C)cc1` [82626-48-0]: the logBB was 0.12.
